Test: In vitro cytotoxicity tested as inhibitory concentration against carcinoma KB cell line

Compound	IC50
O=P1(N(CCCl)CCCl)NC(O)CCO1 (configuration not stated)	10 µM
CO[C@H]1CCOP(=O)(N(CCCl)CCCl)N1 (some centres not stated)	16 µM

— ChEMBL document CHEMBL1134072, “Anodic oxidation of ifosfamide and cyclophosphamide: a biomimetic metabolism model of the oxazaphosphorinane anticancer drugs” (Bioorg Med Chem Lett, 2001)
